Assay results as given in patent US8278296B2, “Manipulation of brain CDP-diacylglycerol and uses thereof” (priority 2006, dated 2012).
“Also recorded” adds a separate entry of the source.

Test system: 5HT2 receptor
Conditions: hippocampus, similar in frontal cortex
Method: Hippocampal slices were incubated with either [^3H]inositol (FIGS. 13A-13B) or [^3H]cytidine (FIG. 13C) for 30 min, followed by addition of indicated concentrations of LY53857 (6-methyl-1-(1-methylethyl)-ergoline-8β-carboxylic acid 2-hydroxy-1-methylpropyl ester maleate). […] After 60 min, tritiated inositol phosphate, inositol phospholipids, or CDP-diacylglycerol were assayed. Each bar is the mean±SEM (n=6). Data for each analyte were normalized across experiments and test drugs and then were analyzed for each drug by One-Way ANOVA of responses measured at the four concentration conditions of LY53857 (0, 0.1, 1, 10 μM). The ANOVAs were followed with Dunnett tests comparing the response in the presence of each concentration of LY53857 to the control effect of the antidepressant alone.
To examine the extent to which the enhancing effects of antidepressant agents on inositol phosphate accumulation were dependent on postsynaptic 5HT2 receptor stimulation, each antidepressant was challenged with a range of concentrations of the 5HT2 receptor-selective antagonist, LY53857 (71-72). The antagonist was added after the prelabeling phase, but 15 min prior to the addition of α-methylserotonin to the incubating slices.

CNCCC(Oc1ccc(C(F)(F)F)cc1)c1ccccc1 (stereo not shown) [fluoxetine]
inhibition by 5HT2 receptor blockade (LY53857) of the drug's PI labeling / phosphatidylinositol resynthesis effect: substantial; also recorded: significantly inhibited
